# Test system: subcutaneous SW480 (Human Colon Cancer) tumors
# Assay: Example 4 Floxuridine in Atrix polymer, SCID mice bearing SW480 tumors II
# Details: 100 mg/kg FUDR/Saline × 1, ip, 20 μL
smiles,measurement,value
"O=c1[nH]c(=O)n([C@H]2C[C@H](O)[C@@H](CO)O2)cc1F [FUDR, 5-fluorodeoxyuridine]",Mortality (%),0%

# From US20060121085A1, “Formulations for cell-schedule dependent anticancer agents” (priority 2003, published 2006)
